We go through 1 molecule from ChEMBL document CHEMBL4834486 (Bioorg Med Chem, 2021).

One assay has as its system MCF7. Description: Antiproliferative activity against human MCF7 cells assessed as inhibition of cell proliferation measured after 72 hrs by CCK-8 assay. A general note: Formazan colour is commonly taken as a measure of viable cells.
The subject of the next assay is MDA-MB-231. Description: Antiproliferative activity against human MDA-MB-231 cells assessed as inhibition of cell proliferation measured after 72 hrs by CCK-8 assay.
The next assay has as its system MCF-10A. Description: Cytotoxicity against human MCF-10A cells assessed as inhibition of cell proliferation measured after 72 hrs by CCK-8 assay. The format is cell-based.

In general, IC50 refers to the concentration that gives 50% inhibition. Consider `O=C(O)c1ccc(N(CCCl)CCCl)cc1`, for which the values for the IC50 in the assay on MCF7, in the assay on MDA-MB-231 and with MCF-10A were more than 20 µM, more than 20 µM and more than 40 µM, respectively.
